# From PubChem BioAssay (Tox21)
# Protein sequences, listed by entry. Tags and fused reporters are not part of them.
# UniProt P03372, whole entry: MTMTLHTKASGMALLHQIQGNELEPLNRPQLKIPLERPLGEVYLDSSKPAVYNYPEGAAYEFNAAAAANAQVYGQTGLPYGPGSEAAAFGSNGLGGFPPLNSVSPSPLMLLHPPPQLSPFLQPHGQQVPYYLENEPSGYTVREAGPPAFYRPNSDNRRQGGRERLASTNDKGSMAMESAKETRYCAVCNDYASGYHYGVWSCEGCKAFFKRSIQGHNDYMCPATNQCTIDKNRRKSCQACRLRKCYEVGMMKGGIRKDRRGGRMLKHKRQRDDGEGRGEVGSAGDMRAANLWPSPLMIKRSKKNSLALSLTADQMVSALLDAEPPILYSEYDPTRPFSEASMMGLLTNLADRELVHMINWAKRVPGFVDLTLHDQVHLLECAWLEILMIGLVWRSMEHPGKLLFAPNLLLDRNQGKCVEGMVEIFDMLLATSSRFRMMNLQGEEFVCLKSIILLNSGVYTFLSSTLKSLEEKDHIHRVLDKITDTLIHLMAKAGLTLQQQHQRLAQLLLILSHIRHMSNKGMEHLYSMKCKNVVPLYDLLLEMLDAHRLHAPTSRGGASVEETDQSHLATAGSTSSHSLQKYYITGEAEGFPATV
# UniProt P10275, whole entry: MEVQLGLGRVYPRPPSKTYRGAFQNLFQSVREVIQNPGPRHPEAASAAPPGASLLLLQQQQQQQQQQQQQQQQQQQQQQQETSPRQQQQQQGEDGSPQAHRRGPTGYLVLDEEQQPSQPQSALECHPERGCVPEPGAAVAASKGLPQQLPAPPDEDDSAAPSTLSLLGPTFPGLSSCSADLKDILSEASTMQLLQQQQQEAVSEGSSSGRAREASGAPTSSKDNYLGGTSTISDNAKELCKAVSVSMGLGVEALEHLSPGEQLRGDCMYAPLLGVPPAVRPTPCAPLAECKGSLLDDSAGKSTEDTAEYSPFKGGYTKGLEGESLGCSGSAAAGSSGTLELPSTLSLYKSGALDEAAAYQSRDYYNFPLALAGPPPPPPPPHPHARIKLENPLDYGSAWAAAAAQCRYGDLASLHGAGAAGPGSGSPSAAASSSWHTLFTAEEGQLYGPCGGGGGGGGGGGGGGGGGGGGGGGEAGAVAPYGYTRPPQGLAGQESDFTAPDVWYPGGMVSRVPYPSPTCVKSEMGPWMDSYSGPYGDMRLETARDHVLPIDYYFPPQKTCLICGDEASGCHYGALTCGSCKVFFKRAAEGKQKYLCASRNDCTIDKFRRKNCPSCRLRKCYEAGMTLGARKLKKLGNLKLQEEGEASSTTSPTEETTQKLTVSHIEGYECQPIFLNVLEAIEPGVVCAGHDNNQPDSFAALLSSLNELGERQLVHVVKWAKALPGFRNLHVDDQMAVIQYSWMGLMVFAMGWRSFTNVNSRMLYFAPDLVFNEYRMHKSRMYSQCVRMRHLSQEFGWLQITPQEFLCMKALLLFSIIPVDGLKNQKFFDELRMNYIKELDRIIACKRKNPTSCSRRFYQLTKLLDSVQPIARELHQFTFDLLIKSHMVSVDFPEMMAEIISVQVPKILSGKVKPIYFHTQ
# Several values for one entry are separate records, joined by “and”; a condition that tells them apart may be missing. Equal values may be shown once. The list shows a part of the results, in another mix than the full data. Records with an inconclusive call do not appear. More than one record can exist for a structure, and the calls need not agree. Activity calls are given as the source filed them. The call rests on the fitted dose curve; in most records, active means well fitted curve in the direction sought with a large enough effect in the repeat runs; inconclusive means weak or mixed curves; inactive means no such curve, though single readings can be large; an effect the other way counts as inactive or inconclusive.
# Legend:
# [1] = qHTS RealTime-Glo MT Cell Viability Assay in HepG2 cells - 16 hour (AID 1224885); settings: RealTime-Glo luminescence; further: nearly all actives have a fitted effect of over 50% in size
# Procedure, shortened: (§1)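 Cell number in HepG2 cultures estimated from NanoLuc luminescence generated by metabolic reduction of a prosubstrate by living cells. The homogeneous, nonlytic format allowed repeated reads at 0, 8, 16, 24, 32 and 40 h of compound exposure.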
# [2] = qHTS RealTime-Glo MT Cell Viability Assay in HEK293 cells - 24 hour (AID 1224886); settings: RealTime-Glo luminescence; further: top concentration of the series differs between compounds; nearly all actives have a fitted effect of over 50% in size
# Procedure, shortened: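 Homogeneous bioluminescent viability format in HEK293 cells (600 cells/well). Following 5 h at 37 C/5% CO2, 23 nL compound was pintooled; the signal was measured repeatedly during 40 h incubation.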
# [3] = qHTS RealTime-Glo MT Cell Viability Assay in HEK293 cells - 8 hour (AID 1224887); settings: RealTime-Glo luminescence; further: top concentration of the series differs between compounds; nearly all actives have a fitted effect of over 50% in size
# Procedure, shortened: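 Luminescence, which tracks viable cell number through reduction of the prosubstrate to a NanoLuc substrate, was read over continuous 37 C culture. Cells (600/well) were premixed with reagent and rested 5 h before 23 nL of compound in DMSO was pinned.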
# [4] = qHTS RealTime-Glo MT Cell Viability Assay in HepG2 cells - 0 hour (AID 1224889); settings: RealTime-Glo luminescence; at 76.8 µM (top of the series) unless noted; further: nearly all actives have a fitted effect of over 50% in size
# Procedure, shortened: as §1
# [5] = A CellTox Green Cytotoxicity Assay to monitor cytotoxicity in HepG2 cells - 8 hour (AID 1224890); further: nearly all actives have a fitted effect of over 45% in size; further: potency means the concentration at half of the fitted maximal effect
# Procedure, shortened: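 Real-time cytotoxicity: fluorescence of a cell-impermeant cyanine dye binding DNA of dead HepG2 cells, measured repeatedly (0–40 h) during compound exposure at 37 C. Cells seeded 600/well with reagent, dosed after 5 h.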
# [6] = qHTS assay to identify small molecule antagonists of the estrogen receptor alpha (ER-alpha) signaling pathway using the BG1 cell line in the presence of 0.1 nM 17-beta-estradiol - cell viability counter screen (AID 1259241); further: nearly all actives have a fitted effect of over 40% in size; further: potency means the concentration at half of the fitted maximal effect
# Procedure, shortened: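 Measures cytotoxicity alongside the ER-alpha antagonist readout: VM7Luc4E2 cells, charcoal-stripped serum, 0.1 nM 17beta-estradiol final, 22 hr compound incubation at 37C, CellTiter-Fluor fluorescence.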
# [7] = qHTS assay to identify small molecule antagonists of the androgen receptor (AR) signaling pathway using the MDA cell line in the presence of 0.5 nM R1881 - cell viability counter screen (AID 1259242); settings: MDA-kb2 viability, CellTiter-Fluor protease fluorescence, 16 h; further: nearly all actives have a fitted effect of over 45% in size
# Procedure, shortened: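 Live-cell protease activity was measured by CellTiter-Fluor fluorescence after 30 min. Before that, MDA-kb2 MMTV-luciferase cells had 16 hr at 37C without CO2, exposed to test compounds and 0.5 nM R1881 final.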
# [8] = A CellTox Green Cytotoxicity Assay to monitor cytotoxicity in HEK293 cells - 8 hour (AID 1224884); further: nearly all actives have a fitted effect of over 35% in size; further: potency means the concentration at half of the fitted maximal effect
# Procedure, shortened: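 Fluorescence from a DNA-binding dye excluded by viable cells was measured repeatedly in the same HEK293 wells (600 cells/well) during continuous compound exposure at 37 C. Each assay gives one read point: 0, 8, 16, 24, 32 or 40 h.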
# [9] = target: Estrogen receptor (Homo sapiens) (UniProt P03372); assay: qHTS assay to identify small molecule antagonists of the estrogen receptor alpha (ER-alpha) signaling pathway using the BG1 cell line in the presence of 0.1 nM 17-beta-estradiol (AID 1259244); settings: VM7Luc4E2 (BG1) ERE-luciferase, antagonist mode, 0.1 nM E2, 22 h; at 92.4 µM (top of the series) unless noted; further: nearly all actives have a fitted effect of over 50% in size
# [10] = target: Androgen receptor (Homo sapiens) (UniProt P10275); assay: qHTS assay to identify small molecule antagonists of the androgen receptor (AR) signaling pathway using the MDA cell line in the presence of 0.5 nM R1881 (AID 1259243); further: nearly all actives have a fitted effect of over 50% in size; further: potency means the concentration at half of the fitted maximal effect
# [11] = at 76.8 µM (top of the series) unless noted
# On the % scale 0 is the no-effect control and ±100 the full control effect.
SMILES,"activity change, negative = cytotoxic [1, 11]","activity change, negative = cytotoxicity ([2]; at 76.8 µM (top of the series))","activity change, negative = cytotoxicity [3, 11]","activity change, negative = cytotoxicity [4]",Potency [5],Potency [6],"viability change, negative = cytotoxic ([7]; at 92.4 µM (top of the series))",Potency [8],"activity change, negative = inhibition [9]",Potency [10],"activity change, negative = cytotoxicity ([2]; at 35.3 µM (top of the series))","viability change, negative = cytotoxic ([7]; at 42.5 µM (top of the series))","activity change, negative = cytotoxic ([1]; at 35.3 µM (top of the series))","activity change, negative = cytotoxic ([1]; at 76.8 µM (top of the series))","activity change, negative = cytotoxicity ([3]; at 35.3 µM (top of the series))","activity change, negative = cytotoxicity ([3]; at 76.8 µM (top of the series))"
[NH4+].[O-][Cl+3]([O-])([O-])[O-],inactive: 1.98% and inactive: 2.41%,inactive: -1.94% and inactive: 2.47%,inactive: -0.418% and inactive: -0.429%,inactive: 3.54% and inactive: -2.31%,inactive,inactive,inactive: 2.66% and inactive: -1.81%,–,–,–,–,–,–,–,–,–
Cc1ccc([N+](=O)[O-])cc1[N+](=O)[O-],–,inactive: 1.81% and inactive: 0.0162%,inactive: 0.794% and inactive: 4.6%,inactive: 1.25% and inactive: 7.12%,inactive,inactive,inactive: 3% and inactive: 2.07%,inactive,inactive: -13.2% and inactive: -4.71%,–,–,–,–,–,–,–
CCOP(=O)(CC)OCC,inactive: 1.43%,inactive: 5.36%,inactive: 3.66%,inactive: 0.458%,inactive,inactive,inactive: 2.11%,inactive,–,–,–,–,–,–,–,–
CN(C)CCCl,inactive: 2.42%,inactive: 4.1%,inactive: -2.63%,inactive: -0.227%,inactive,inactive,inactive: 0.487%,inactive,–,inactive,–,–,–,–,–,–
CC(C)OP(C)(=O)OC(C)C,–,inactive: 11.3%,inactive: -13.2% and inactive: 16.9%,inactive: -5.34% and inactive: 0.819%,inactive,inactive,inactive: -14.5% and inactive: -0.884%,inactive,–,–,–,–,–,–,–,–
N=C(N)N[N+](=O)[O-],inactive: 2%,inactive: -5.43%,inactive: -11.9%,inactive: -3.6%,inactive,inactive,inactive: 1.48%,inactive,inactive: -6.43%,inactive,–,–,–,–,–,–
CCOP(=O)(CC)Oc1ccc([N+](=O)[O-])cc1 (stereo unspecified),inactive: -7.56% [at 35.3 µM],–,inactive: -0.0579% [at 35.3 µM],inactive: -2.58% [at 35.3 µM],inactive,inactive,–,inactive,inactive: -13.6% [at 42.5 µM],active: 21.1 µM,inactive: -7.23%,inactive: -15.6%,–,–,–,–
O=[N+]([O-])c1cccc([N+](=O)[O-])c1,inactive: -0.271%,–,–,inactive: 10.2%,active: 51 µM,–,inactive: 6.73%,active: 45.5 µM,–,–,–,–,–,–,–,–
O=[N+]([O-])OCC(CO[N+](=O)[O-])(CO[N+](=O)[O-])CO[N+](=O)[O-],inactive: 3.63%,inactive: 5.84%,inactive: 2.14%,inactive: 4.65%,inactive,inactive,inactive: 2.42%,–,inactive: -2.2%,inactive,–,–,–,–,–,–
Nc1cc([N+](=O)[O-])cc([N+](=O)[O-])c1O,inactive: -10.3%,–,inactive: -0.171%,inactive: 0.254%,inactive,–,–,inactive,inactive: -16.7%,–,–,–,–,–,–,–
COc1ccc([N+](=O)[O-])cc1[N+](=O)[O-],inactive: -15.4%,inactive: 0.744%,inactive: 3.6%,inactive: 3.67%,inactive,inactive,inactive: 0.656%,inactive,inactive: -0.771%,–,–,–,–,–,–,–
OCCSCCO,–,inactive: -7.36%,–,–,inactive,inactive,inactive: 0.722%,inactive,–,–,inactive: -1.04%,inactive: 5.41%,inactive: -22.7%,inactive: -1.15%,inactive: 0.999%,inactive: 0.0561%
CC(C)N(CCO)C(C)C,inactive: -8.48%,inactive: -0.0451%,inactive: -3.85%,inactive: -13%,inactive,inactive,inactive: -5.11%,inactive,–,inactive,–,–,–,–,–,–
COP(C)(=O)OC,inactive: -1.09% and inactive: -3.3%,inactive: 3.54% and inactive: 1.73%,inactive: 4.41% and inactive: 0.0757%,inactive: 2.11% and inactive: -8.79%,inactive,inactive,inactive: 1.49% and inactive: -2.71%,inactive,inactive: -0.167% and inactive: 0.32%,–,–,–,–,–,–,–
O=[N+]([O-])[O-].[NH4+],inactive: 1.32% and inactive: 0.868%,inactive: 0.861% and inactive: 0.564%,inactive: 2.36% and inactive: 0.928%,inactive: 6.99% and inactive: 3.88%,inactive and active: 38.9 µM,inactive,–,inactive and active: 38.9 µM,–,–,–,–,–,–,–,–
N#CBr,inactive: -3.13%,inactive: 10.8%,inactive: 4.3%,inactive: -12.9%,inactive,inactive,inactive: -0.7%,inactive,inactive: 7.5%,inactive,–,–,–,–,–,–
CCN(CC)CCCl,inactive: 0.404%,inactive: 8.26%,inactive: -3.09%,inactive: -0.565%,inactive,inactive,inactive: 2.04%,inactive,inactive: -13.4%,inactive,–,–,–,–,–,–
CP(=O)(O)OCCC[Si](O)(O)O,inactive: 3.05%,inactive: -3.41%,inactive: -1.25%,inactive: 2.17%,inactive,inactive,inactive: 4.48%,inactive,inactive: -0.215%,–,–,–,–,–,–,–
Cc1ccc([N+](=O)[O-])c([N+](=O)[O-])c1,inactive: -1.96% and inactive: -6.84%,–,inactive: -15.3% and inactive: -4.26%,inactive: 1.81% and inactive: -4.01%,–,–,–,–,inactive: 42.6%,–,–,–,–,–,–,–
C/C1=C2N=C(/C=C3N=C(/C(C)=C4\[N-][C@@](C)([C@@H]5N=C1[C@](C)(CCC(=O)NC[C@@H](C)OP(=O)([O-])O[C@H]1[C@@H](O)[C@@H](n6cnc7cc(C)c(C)cc76)O[C@@H]1CO)[C@H]5CC(N)=O)[C@@](C)(CC(N)=O)[C@@H]4CCC(N)=O)[C@@](C)(CC(N)=O)[C@@H]\3CCC(N)=O)C(C)(C)[C@@H]/2CCC(N)=O.[C-]#N.[Co+3],inactive: -4.97% [at 35.3 µM],–,inactive: -10.7% [at 35.3 µM],inactive: 6.03% [at 35.3 µM],inactive,active: 11.9 µM,–,inactive,inactive: -26.5% [at 42.5 µM],–,inactive: -9.48%,inactive: -20.1%,–,–,–,–
Cc1cccc([N+](=O)[O-])c1[N+](=O)[O-],inactive: 3.49% [at 35.3 µM],–,inactive: 5.83% [at 35.3 µM],inactive: 7.57% [at 35.3 µM],inactive,inactive,–,inactive,–,active: 45.8 µM,–,inactive: -7.3%,–,–,–,–
Cc1c([N+](=O)[O-])cccc1[N+](=O)[O-],inactive: 0.162% and inactive: 2.15%,–,inactive: -0.249% and inactive: 8.79%,inactive: -1.83% and inactive: 3.97%,inactive,inactive,inactive: -1.23% and inactive: 0.979%,inactive,–,–,–,–,–,–,–,–
